Laboratory results from patent US11396531B2, “Antimicrobial peptides comprising epsilon lysine residues” (priority 2016, dated 2022).

Experiments:
[1] = Calcein dye leakage from mammalian model LUVs; details: peptide:lipid ratio 0.0625
Description: To obtain an insight into the mechanism of membrane discrimination, large unilamellar vesicles (LUVs) which mimic the cytoplasmic membrane of mammalian (PC/Cholesterol) and microbial (PE:PG) cells were used. […] More dramatic results were observed when the experiments were carried out on PC/Cholesterol LUVs.

[2] = tested on: primary human dermal fibroblasts (HDFs); assay: MTS cytotoxicity assay; details: for Cytotoxicity for primary human dermal fibroblasts: Table 5
Description: MTS ((3-(4,5-dimethylthiazol-2-yl)-5-(3-carboxymethoxyphenyl)-2-(4-sulfophenyl)-2H-tetrazolium)) assay and high content analysis (HCA) were performed to elucidate the effect of various polymers on metabolic activity and morphological parameters of cultured human dermal fibroblasts (hDF), respectively as described previously. The antineoplastic agent, nocodazole (5 μg/ml), served as the […] control whereas cells treated with PBS served as positive control. The average values from three independent triplicate experiments are reported. Cells were cultured in 96-well plates and scanned (16 randomly selected fields/well) using an automated microscope IN Cell Analyzer 2200 (GE Healthcare). The multi-parametric cytotoxicity bio-application module of the IN Cell Investigator software (GE Healthcare) was used in quantitative estimations and morphotypic analysis of acquired images, which were automatically converted into color-coded heatmaps using Spotrfire® software.
Human dermal fibroblast cells were seeded in 96-well plates (2×10^3 cells/well) and incubated for 24 h at 37° C. and 5% CO2. Cells were then treated with various concentrations of polymers or peptides (62.5 μg/ml-1 mg/ml. At the end of the treatment period (after 24 h), 20 or 50 μl of MTS tetrazolium solution was added into 96-well or 12-well plates and further incubated for 2 h at 37° C. Subsequently, the absorbance was measured at 490 nm using a microplate reader (Infinite M200 Pro, Tecan, Switzerland) and the relative cell viability was calculated. Each treatment was performed in two triplicates and reported.
The cytotoxicity of peptides and polymers were determined using CellTier 96® Aqueous One solution cell proliferation assay kit according to the manufacturer's instruction (Promega Corporation, Madison, Wis.). This assay evaluates mitochondrial function by measuring ability of viable cells to reduce MTS ((3-(4,5-dimethylthiazol-2-yl)-5-(3-carboxymethoxyphenyl)-2-(4-sulfophenyl)-2H-tetrazolium)) into a quantifiable […] formazan product. HDFs were seeded in 96-well plates (2×10^3 cells/well) and incubated for 24 h at 37° C. and 5% CO2. Cells were then treated with a concentrated stock solution of polymers (final concentration 62.5-2000 μg/ml in the well) or peptides (final concentration 4-1000 μg/ml in the well). After 24 h, 20 μl of MTS tetrazolium solution was added into 96-well well plates and further incubated for 2 h at 37° C. Subsequently, the absorbance was measured at 490 nm using a microplate reader (Infinite M200 Pro, Tecan, Switzerland) and the relative cell viability was calculated relative to untreated control (10 mM PBS, pH 7.0). Each treatment was performed in two triplicates and reported.

[3] = tested on: C. albicans
Description: (§1) MIC of cationic polymers and polypeptide were tested in accordance with the Clinical and Laboratory Standards Institute (CLSI) guidelines against a panel of antibiotic-susceptible/-resistant bacteria, yeasts and fungal strains. Bacterial and yeast strains were cultured on tryptic soy agar (TSA) and Sabaroud dextrose agar (SDA) plates (Neogen Corporation, MI, USA) overnight respectively. Inocula in Mueller-Hinton broth (MHB) for bacteria and SD broth for C. albicans (Beckton Dickinson, MD, USA) were prepared at 0.5 McFarland. The suspensions were then diluted to a final concentration of 10^5 CFU/ml in a 96-well microtitre plate (SPL Life Sciences Co., Ltd, Korea). […] The antimicrobial activities were compared with topical antiseptic agents, BAK and CHX. A similar protocol was used to determine the MIC of εPL against antibiotic-resistant pathogens. MIC of the polymers and polypeptides against Fusarium strains was determined in full strength RPMI-1640 buffer. Fungal spores were recovered from a 5-day old culture on a potato dextrose agar and diluted to a concentration of 10^5 spores/ml in 0.9% saline solution. A further 50-fold dilution was done in RPMI-1640 buffer and 100 μl of the inoculum was added to 96 well plates containing an equal volume of test peptides at 2-fold serial dilutions. 200 μl of inoculum without any additives and buffer alone served as positive and negative controls, respectively. The plate was then incubated at 30° C. for 48 h. The absorbance value was measured at 600 nm as before and the lowest concentration of the peptide which inhibited 90% growth was reported. All MIC determinations were performed in duplicates.
(§2) MICs of polymers/antibiotics were determined using the microdilution method in 96 well microtitre plates (SPL Life Sciences Co., Ltd, Korea), following the guidelines of Clinical and Laboratory Standards Institute (CLSI) document M100-S18. Briefly, polymers (1-512 μg/ml) or antibiotics were dissolved in appropriate media (Mueller Hinton broth, MHB for bacteria; Sabaroud's Dextrose (SD) broth for yeasts and RPMI buffer for Fusarium strains) and 100 μl of this was then mixed with an equal volume of microbial inoculum (OD600=˜0.08) in the same media and shaken in a closed incubator.

[4] = tested on: P. aeruginosa; assay type: cell-based, Pseudomonas aeruginosa; details: Table 4, range over 5 strains
Description: as §1, with “Korea). Polymers and polypeptides were added to the inoculum in 2-fold serial dilutions to give a range of concentrations from 2-1024 μg/ml.” for “Korea).”
as §2

[5] = tested on: S. aureus or MRSA; assay type: cell-based, Staphylococcus aureus; details: Table 4, range over 5 strains
Description: as §1, with “Korea). Polymers and polypeptides were added to the inoculum in 2-fold serial dilutions to give a range of concentrations from 2-1024 μg/ml.” for “Korea).”
as §2

[6] = tested on: B. subtilis ATCC 6633; details: B. subtilis ATCC 6633, Table 5
Description: as §1, §2

[7] = tested on: A. baumannii; details: A. baumannii (n = 10), Table 5; for MIC90: 90% of strains susceptible; for MIC: range
Description: as §1, §2

[8] = tested on: B. cereus ATCC 11778; details: B. cereus ATCC 11778, Table 5
Description: as §1, §2

[9] = tested on: Vancomycin-resistant Enterococcus (VRE); details: VRE (n = 21 strains), Table 5; for MIC90: 90% of strains susceptible; for MIC: range
Description: as §1, §2

[10] = tested on: S. epidermidis 12228; details: S. epidermidis 12228, Table 5
Description: as §1, §2

[11] = tested on: Carbapenam-resistant Enterobacter strains (CRE); details: CRE (n = 19 strains), Table 5; for MIC50: 50% of strains susceptible; for MIC: range
Description: as §1, §2

[12] = tested on: E. cloacae complex
Description: as §1, §2

[13] = tested on: C. tropicalis; details: C. tropicalis (n = 9), Table 5
Description: as §1, §2

[14] = tested on: C. parapsilosis; details: C. parpsilosis (n = 9), Table 5
Description: as §1, §2

[15] = tested on: VRE 1002; assay: SYTOX green (SG) uptake assay and bacterial viability; assay type: cell-based, Enterococcus; details: 1× and 2×MIC
Description: To discern the pore-forming ability of modified peptide in comparison with melittin, the SYTOX green (SG) uptake assay was performed upon exposure of the peptides and their bactericidal properties were determined. […] Therefore the fluorescence intensity is taken to be proportional to the degree of cell membrane disruption caused by test peptides.

[16] = E. cloacae complex 6780, Table 5
[17] = E. cloacae complex 44095, Table 5

SMILES	Cytotoxicity for primary human dermal fibroblasts [2]	MIC [6]	MIC90 [7]	MIC [7]	MIC [8]	MIC90 [9]	MIC [9]	MIC [10]	MIC50 [11]	MIC [11]	MIC [12, 16]	MIC [12, 17]	SG uptake compared with melittin [15]	also measured
CC[C@H](C)[C@H](NC(=O)CN)C(=O)NCC(=O)N[C@@H](C)C(=O)N[C@H](C(=O)N[C@@H](CC(C)C)C(=O)N[C@@H](CCCCN)C(=O)N[C@H](C(=O)N[C@@H](CC(C)C)C(=O)N[C@H](C(=O)N[C@H](C(=O)NCC(=O)N[C@@H](CC(C)C)C(=O)N1CCC[C@H]1C(=O)N[C@@H](C)C(=O)N[C@@H](CC(C)C)C(=O)N[C@H](C(=O)N[C@@H](CO)C(=O)N[C@@H](Cc1c[nH]c2ccccc12)C(=O)N[C@H](C(=O)N[C@@H](CCCCN)C(=O)N[C@@H](CCCNC(=N)N)C(=O)NCCCC[C@H](N)C(=O)N[C@@H](CCCNC(=N)N)C(=O)N[C@@H](CCC(N)=O)C(=O)N[C@@H](CCC(N)=O)C(N)=O)[C@@H](C)CC)[C@@H](C)CC)[C@@H](C)O)[C@@H](C)O)C(C)C)C(C)C [Peptide 1]	–	–	–	–	–	–	–	–	–	–	–	–	–	dye leakage from PC/Cholesterol LUVs [1]: ~70%; Cytotoxicity (in μg/ml) for HDFs ([2]; Concentration at which complete cytotoxicity was observed in MTS and HCA): 32 µg/mL; MIC against C. albicans (n = 5) ([3]; Table 4, range over 5 strains): 4 to 8 µg/mL; MIC against P. aeruginosa (n = 5) [4]: 4 to 16 µg/mL; MIC against S. aureus or MRSA (n = 5) [5]: 4 to 8 µg/mL
CC[C@H](C)[C@H](NC(=O)CN)C(=O)NCC(=O)N[C@@H](C)C(=O)N[C@H](C(=O)N[C@@H](CC(C)C)C(=O)NCCCC[C@H](N)C(=O)N[C@H](C(=O)N[C@@H](CC(C)C)C(=O)N[C@H](C(=O)N[C@H](C(=O)NCC(=O)N[C@@H](CC(C)C)C(=O)N1CCC[C@H]1C(=O)N[C@@H](C)C(=O)N[C@@H](CC(C)C)C(=O)N[C@H](C(=O)N[C@@H](CO)C(=O)N[C@@H](Cc1c[nH]c2ccccc12)C(=O)N[C@H](C(=O)N[C@@H](CCCCN)C(=O)N[C@@H](CCCNC(=N)N)C(=O)NCCCC[C@H](N)C(=O)N[C@@H](CCCNC(=N)N)C(=O)N[C@@H](CCC(N)=O)C(=O)N[C@@H](CCC(N)=O)C(N)=O)[C@@H](C)CC)[C@@H](C)CC)[C@@H](C)O)[C@@H](C)O)C(C)C)C(C)C [Peptide 6]	1000 µg/mL	16 µg/mL (≈ 5.62 µM)	(MIC90 = 8) μg/ml	4 to 8 µg/mL	8 µg/mL (≈ 2.81 µM)	(MIC90 = 8) μg/ml	4 to 16 µg/mL	8 µg/mL (≈ 2.81 µM)	(MIC50 = 16) μg/ml	4 to 128 µg/mL	16 µg/mL (≈ 5.62 µM)	8 µg/mL (≈ 2.81 µM)	decreased SG uptake	MIC ([3]; C. albicans (n = 5), Table 5): 16 to 32 µg/mL; MIC [13]: 2 to 32 µg/mL; MIC [14]: 8 to 64 µg/mL
CC[C@H](C)[C@H](NC(=O)CN)C(=O)NCC(=O)N[C@@H](C)C(=O)N[C@H](C(=O)N[C@@H](CC(C)C)C(=O)NCCCC[C@H](N)C(=O)N[C@H](C(=O)N[C@@H](CC(C)C)C(=O)N[C@H](C(=O)N[C@H](C(=O)NCC(=O)N[C@@H](CC(C)C)C(=O)N1CCC[C@H]1C(=O)N[C@@H](C)C(=O)N[C@@H](CC(C)C)C(=O)N[C@H](C(=O)N[C@@H](CO)C(=O)N[C@@H](Cc1c[nH]c2ccccc12)C(=O)N[C@H](C(=O)NCCCC[C@H](N)C(=O)N[C@@H](CCCNC(=N)N)C(=O)N[C@@H](CCCCN)C(=O)N[C@@H](CCCNC(=N)N)C(=O)N[C@@H](CCC(N)=O)C(=O)N[C@@H](CCC(N)=O)C(N)=O)[C@@H](C)CC)[C@@H](C)CC)[C@@H](C)O)[C@@H](C)O)C(C)C)C(C)C [Peptide 5]	1000 µg/mL	16 µg/mL (≈ 5.62 µM)	(MIC90 = 4) μg/ml	2 to 4 µg/mL	32 µg/mL (≈ 11.2 µM)	(MIC90 = 8) μg/ml	4 to 16 µg/mL	16 µg/mL (≈ 5.62 µM)	(MIC50 = 8) μg/ml	4 to 64 µg/mL	8 µg/mL (≈ 2.81 µM)	8 µg/mL (≈ 2.81 µM)	decreased SG uptake	–

In brackets after ≈: the same amount, converted by molar mass. Where two headings read alike, the source gives them in different places.
